The chains behind the UniProt entries cited, without tags or fusion partners. Where a name states a change or a piece, a line headed by the entry shows the natural chain unless it says otherwise.
UniProt Q12809: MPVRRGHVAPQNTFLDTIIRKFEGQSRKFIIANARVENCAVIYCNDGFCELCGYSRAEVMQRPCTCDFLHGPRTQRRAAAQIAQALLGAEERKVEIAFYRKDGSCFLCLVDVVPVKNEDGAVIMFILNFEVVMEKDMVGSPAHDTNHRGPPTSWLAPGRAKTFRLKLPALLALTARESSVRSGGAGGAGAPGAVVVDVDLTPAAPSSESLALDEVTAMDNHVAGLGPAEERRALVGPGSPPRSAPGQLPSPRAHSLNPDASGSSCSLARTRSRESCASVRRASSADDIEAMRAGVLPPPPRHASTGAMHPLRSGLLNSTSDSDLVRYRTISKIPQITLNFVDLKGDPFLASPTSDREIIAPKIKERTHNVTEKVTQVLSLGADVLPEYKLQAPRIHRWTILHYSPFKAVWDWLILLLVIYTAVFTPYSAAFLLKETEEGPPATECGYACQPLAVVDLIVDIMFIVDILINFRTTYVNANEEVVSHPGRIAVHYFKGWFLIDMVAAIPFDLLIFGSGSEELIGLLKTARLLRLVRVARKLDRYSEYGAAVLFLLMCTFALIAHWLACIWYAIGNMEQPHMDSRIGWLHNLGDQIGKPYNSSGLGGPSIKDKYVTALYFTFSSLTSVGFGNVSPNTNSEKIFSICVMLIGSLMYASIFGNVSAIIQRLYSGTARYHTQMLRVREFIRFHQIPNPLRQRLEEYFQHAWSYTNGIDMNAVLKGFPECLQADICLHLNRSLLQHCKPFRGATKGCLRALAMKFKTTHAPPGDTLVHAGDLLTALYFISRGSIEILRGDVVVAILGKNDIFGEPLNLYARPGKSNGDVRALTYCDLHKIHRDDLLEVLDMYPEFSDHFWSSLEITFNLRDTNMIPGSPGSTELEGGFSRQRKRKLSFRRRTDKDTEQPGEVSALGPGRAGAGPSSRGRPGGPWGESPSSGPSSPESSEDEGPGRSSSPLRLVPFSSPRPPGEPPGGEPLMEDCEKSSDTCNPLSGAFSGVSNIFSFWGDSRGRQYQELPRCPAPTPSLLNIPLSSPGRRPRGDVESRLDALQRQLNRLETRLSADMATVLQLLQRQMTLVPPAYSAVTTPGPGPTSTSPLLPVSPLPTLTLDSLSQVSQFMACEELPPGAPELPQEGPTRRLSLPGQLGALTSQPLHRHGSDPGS

According to publication PMC10847579, “Recording ten-fold larger IKr conductances with automated patch clamping using equimolar Cs^+ solutions” (Frontiers in Physiology, 2024):

Experiments:
[1] = molecular target: T1, hERG channel (Homo sapiens, UniProt Q12809); assay: Automated patch clamp (Nanion Patchliner) of hERG current in CHO-hERG cells with K+ solutions; format: cell-based; settings: tail current at +40 mV, Hill fit, 22°C
T1 construct: host or cells: CHO cre/lox hERG

[2] = molecular target: T1, hERG channel; assay: Automated patch clamp (Nanion Patchliner) of hERG current in CHO-hERG cells with equimolar Cs+ solutions; format: cell-based; settings: maximal tail current at +40 mV, Hill fit, 22°C
[3] = printed as log(IC50) with negative sign, read-out: Log(IC50) (converted)

CNCCCN1c2ccccc2CCc2ccccc21 [Desipramine]
IC50 [1, 3]: 6.31 µM
IC50 ([1]; read-out: IC50 Conc.): 6.9 µM
IC50 ([2]; read-out: IC50 Conc.): 33.9 µM
IC50 [2, 3]: 39.8 µM
